# In BindingDB's records for doi:10.1016/S0960-894X(97)00333-8 (Gilead Sciences, 1997):
# Molecular target: Hemagglutinin (Influenza A virus (A/Shandong/9/1993(H3N2)), UniProt Q6DM53)
# Conditions: pH 6.5; 37 °C
smiles,measurement,value
"CC(=O)N[C@H]1[C@H]([C@H](O)[C@H](O)CO)OC(C(=O)O)=C[C@@H]1N=C(N)N [(2R,3R,4S)-4-carbamimidamido-3-acetamido-2-[(1R,2R)-1,2,3-trihydroxypropyl]-3,4-dihydro-2H-pyran-6-carboxylic acid]",Ki,1 nM
